Where “and” joins values, the source holds several entries; their conditions need not be identical. Equal entries are not always repeated.
How the values were obtained:
[1] = biological target: T1, α7 nAChR (Homo sapiens, UniProt P36544); assay: α7 responses to drugs co-applied with the PAM PNU-120596 (silent agonism); format: cell-based; conditions: drug 30 μM + 10 μM PNU-120596; normalized to 30 μM ACh + 10 μM PNU-120596
T1 construct: expressed in transfected cells; host or cells: Xenopus laevis oocytes, injected with in vitro transcribed RNA

The chains behind the UniProt entries cited, without tags or fusion partners. Residues count along the entry.
UniProt P36544, 23-502: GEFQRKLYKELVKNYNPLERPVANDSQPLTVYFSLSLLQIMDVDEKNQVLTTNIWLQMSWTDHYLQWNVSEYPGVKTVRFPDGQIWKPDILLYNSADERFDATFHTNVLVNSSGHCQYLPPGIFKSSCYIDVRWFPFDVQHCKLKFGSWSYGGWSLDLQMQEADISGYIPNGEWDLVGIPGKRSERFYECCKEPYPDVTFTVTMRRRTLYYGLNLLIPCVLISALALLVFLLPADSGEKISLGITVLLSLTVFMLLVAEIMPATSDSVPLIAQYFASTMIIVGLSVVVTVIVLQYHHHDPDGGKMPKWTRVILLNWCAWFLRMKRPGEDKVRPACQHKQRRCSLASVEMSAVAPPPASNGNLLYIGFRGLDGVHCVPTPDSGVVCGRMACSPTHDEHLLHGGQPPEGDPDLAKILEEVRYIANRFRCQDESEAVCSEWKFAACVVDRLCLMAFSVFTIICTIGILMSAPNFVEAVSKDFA
UniProt Q9UGM1, 26-479 limits assumed: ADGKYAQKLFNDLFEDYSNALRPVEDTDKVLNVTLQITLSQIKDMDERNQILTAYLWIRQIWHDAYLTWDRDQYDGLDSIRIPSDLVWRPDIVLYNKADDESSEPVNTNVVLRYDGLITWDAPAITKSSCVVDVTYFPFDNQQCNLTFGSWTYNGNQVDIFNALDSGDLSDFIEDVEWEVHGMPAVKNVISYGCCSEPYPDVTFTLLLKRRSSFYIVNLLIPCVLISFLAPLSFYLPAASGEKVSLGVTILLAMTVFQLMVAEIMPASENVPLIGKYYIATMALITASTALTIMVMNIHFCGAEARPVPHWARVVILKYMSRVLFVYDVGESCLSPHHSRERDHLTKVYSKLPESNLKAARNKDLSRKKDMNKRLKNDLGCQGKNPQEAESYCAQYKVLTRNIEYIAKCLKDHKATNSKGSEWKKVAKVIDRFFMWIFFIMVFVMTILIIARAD

[2] = biological target: T2, α9 nAChR (Homo sapiens, UniProt Q9UGM1); conditions: relative to ACh (Imax = 1); data taken from Papke et al. (2022); cited from earlier work
T2 construct: expressed in transfected cells; host or cells: Xenopus laevis oocytes, injected with in vitro transcribed RNA

[3] = biological target: T1, α7 nAChR; conditions: relative to ACh (Imax = 1); data taken from Papke et al. (2022); cited from earlier work

For `CC[N+]1(CC)CCN(c2ccc(C(=O)Nc3cccc(C)n3)cc2)CC1.[I-]` [Compound 2, 1,1-diethyl-4-(4-((6-methylpyridin-2-yl)carbamoyl)phenyl)piperazin-1-ium iodide], the “Response co-applied with PNU-120596, normalized to ACh co-applied with PNU-120596” value [1] is given as 0.17, the “α9 Imax” value [2] is given as 1.06 ± 0.02 and the “α7 Imax” value [3] is given as 0.42 ± 0.02 and 0.42.

— patent US12291501B2 (University of Florida Research Foundation, Inc., priority 2021, dated 2025)
